Ab-14 light chain CDR variants: yeast mating affinities

Target: peptide PDVDLGDISGINAS, taken from heptad repeat 2 (HR2) of SARS-CoV-2 spike.

Parent scFv Ab-14: VH joined to VL by three GGGGS repeats. Changes lie in the light chain CDRs alone.
VH: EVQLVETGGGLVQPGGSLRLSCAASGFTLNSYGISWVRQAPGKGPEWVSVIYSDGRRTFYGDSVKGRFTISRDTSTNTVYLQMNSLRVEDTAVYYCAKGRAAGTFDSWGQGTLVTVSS
VL: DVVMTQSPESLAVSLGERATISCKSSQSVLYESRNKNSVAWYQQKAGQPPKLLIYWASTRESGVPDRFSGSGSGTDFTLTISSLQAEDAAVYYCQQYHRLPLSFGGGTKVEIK

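The parent was found by panning a naive human phage display library on the peptide. In library AAYL50, one, two or three CDR residues were substituted; doubles and triples were drawn at random. The assay is AlphaSeq: two haploid yeast populations carry antibody and antigen on their surface. After mating in shaken culture at 30 °C for 16 h, diploids were selected and their barcode pairs sequenced. A regression on co-assayed BCL2-family reference pairs converts the normalised counts of each replicate to an apparent Kd. There are three technical replicates.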

Each variant's VL is given in full.
Numbers give log10(Kd / nM), so 0 is 1 nM and 3 is 1 µM. Smaller is tighter.
Averages over replicates are reported, and they cover detected replicates only.
"ND" marks a missing value. The strain was present, yet no cells mated with the target were sequenced in that replicate, which points to weak or no binding.
Parent in this assay: reference entry 0.65, copy in this library 1.68.

| VL | log10 Kd (nM) by replicate | mean, log10 nM | signal with controls |
|---|---|---|---|
| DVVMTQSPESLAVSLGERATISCKSSQSVLYESGNKNSMAWYQQKAGQPPKLLIYWASTRESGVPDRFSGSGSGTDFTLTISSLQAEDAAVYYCQQYHRLPLFFGGGTKVEIK | 1.47 / 1.57 / 1.65 | 1.56 | 2/9 (4.18) |
| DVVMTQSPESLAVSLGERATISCKSSQSVLYESRYKNSVAWYQQKAGQPPKLLIYWASTRESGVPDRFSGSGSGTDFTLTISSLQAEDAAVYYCQQYHTLPLSFGGGTKVEIK | 3.29 / 2.10 / 2.61 | 2.67 | 0/9 |
| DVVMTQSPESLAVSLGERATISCKSSQSVLYESCNKNKVAWYQQKAGQPPKLLIYQASTRESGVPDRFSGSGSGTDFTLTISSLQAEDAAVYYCQQYHRLPLSFGGGTKVEIK | 0.78 / 1.06 / 0.88 | 0.91 | 2/9 (3.72) |
| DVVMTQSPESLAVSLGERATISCKSSQSVLYESRNKNSVAWYQQKAGQPPKLLIYWASTRMSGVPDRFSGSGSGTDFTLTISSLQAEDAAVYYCQQNHRLPLSFGGGTKVEIK | 1.68 / 1.69 / 1.81 | 1.73 | 3/9 (3.76) |
| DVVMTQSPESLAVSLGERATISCKSSQSVLYESRNLNSVKWYQQKAGQPPKLLIYWASTREFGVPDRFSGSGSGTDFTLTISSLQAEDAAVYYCQQYHRLPLSFGGGTKVEIK | ND / ND / ND | ND | 0/9 |
| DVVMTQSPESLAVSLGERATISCKSSCSVLTESRNKNSVAWYQQKAGQPPKLLIYWASTRASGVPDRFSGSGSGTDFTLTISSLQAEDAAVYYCQQYHRLPLSFGGGTKVEIK | 1.87 / 1.72 / 1.58 | 1.72 | 2/9 (4.00) |
| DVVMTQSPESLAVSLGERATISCNSSQSVLYESRNKNSVAWYQQKAGQPPKLLIYWASCRESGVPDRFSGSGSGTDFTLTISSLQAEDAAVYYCQQYHRLPLSFGGGTKVEIK | 1.14 / 1.32 / 1.47 | 1.31 | 1/9 (4.28) |
| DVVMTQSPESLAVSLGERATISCKSSQSVLCESRNKNSVAWYQQKAGQPPKLLIYWASNRESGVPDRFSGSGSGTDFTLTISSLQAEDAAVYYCQQYHRLPLSFGGGTKVEIK | 2.05 / 1.87 / 2.11 | 2.01 | 4/9 (4.37) |
| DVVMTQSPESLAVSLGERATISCMSSQFMLYESRNKNSVAWYQQKAGQPPKLLIYWASTRESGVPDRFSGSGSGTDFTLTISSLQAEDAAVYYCQQYHRLPLSFGGGTKVEIK | 2.57 / 1.78 / 2.33 | 2.23 | 1/9 (4.39) |
| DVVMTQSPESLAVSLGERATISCKSSQQVLYESRNKNSVAWYQQKAGQPPKLLIYWASTRESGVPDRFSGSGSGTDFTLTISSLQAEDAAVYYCQQFKRLPLSFGGGTKVEIK | ND / 4.32 / ND | 4.32 | 1/9 (3.38) |
| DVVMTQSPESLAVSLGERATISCKSSQSVLYESRNKNMVDWYQQKAGQPPKLLIYWASTRESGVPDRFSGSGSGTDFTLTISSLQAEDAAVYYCQQYHRLPSSFGGGTKVEIK | ND / 3.40 / ND | 3.40 | 3/9 (4.86) |
| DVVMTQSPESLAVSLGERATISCKSSQSCQYESRNKNSVAWYQQKAGQPPKLLIYWANTRESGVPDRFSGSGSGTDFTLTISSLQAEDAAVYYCQQYHRLPLSFGGGTKVEIK | 1.07 / 1.10 / 1.13 | 1.10 | 5/9 (4.87) |
| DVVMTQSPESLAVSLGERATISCKSSQSVLYEPRNKNSVKWYQQKAGQPPKLLIYWASPRESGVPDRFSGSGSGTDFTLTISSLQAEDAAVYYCQQYHRLPLSFGGGTKVEIK | ND / ND / ND | ND | 0/9 |
| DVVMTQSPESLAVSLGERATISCKSSQSVLYETRNKNSYAWYQQKAGQPPKLLIYWFSTRESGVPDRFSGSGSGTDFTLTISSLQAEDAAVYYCQQYHRLPLSFGGGTKVEIK | ND / ND / ND | ND | 0/9 |

The first 2 entries again:

VL	log10 Kd (nM) by replicate	mean, log10 nM	signal with controls
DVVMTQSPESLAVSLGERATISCKSSQSVLYESGNKNSMAWYQQKAGQPPKLLIYWASTRESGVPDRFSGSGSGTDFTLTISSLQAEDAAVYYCQQYHRLPLFFGGGTKVEIK	1.47 / 1.57 / 1.65	1.56	2/9 (4.18)
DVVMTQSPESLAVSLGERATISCKSSQSVLYESRYKNSVAWYQQKAGQPPKLLIYWASTRESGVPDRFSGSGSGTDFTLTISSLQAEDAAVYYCQQYHTLPLSFGGGTKVEIK	3.29 / 2.10 / 2.61	2.67	0/9

Empty control strains, which show no peptide, gave a signal in 18% of pairings with library AAYL50; the median was 4.19 and 95% of these signals were weaker than 2.99. No background was subtracted. For each scFv, signals with the empty controls are counted beside the result, with their mean in brackets.

From the AlphaSeq antibody data of Engelhart et al. 2022 (doi:10.1038/s41597-022-01779-4), copy in the FLAb collection.